Assay results published in BindingDB's records for doi:10.1111/j.1749-6632.1998.tb10185.x (Albany Medical College, 1998).
pKi: −log10 of the molar value. Where “and” joins values, the source holds several entries; their conditions need not be identical. Equal values may be shown once.

Target: T1, 5-hydroxytryptamine receptor 2C (Rattus norvegicus, UniProt P08909)
T1 sequence (P08909 whole entry): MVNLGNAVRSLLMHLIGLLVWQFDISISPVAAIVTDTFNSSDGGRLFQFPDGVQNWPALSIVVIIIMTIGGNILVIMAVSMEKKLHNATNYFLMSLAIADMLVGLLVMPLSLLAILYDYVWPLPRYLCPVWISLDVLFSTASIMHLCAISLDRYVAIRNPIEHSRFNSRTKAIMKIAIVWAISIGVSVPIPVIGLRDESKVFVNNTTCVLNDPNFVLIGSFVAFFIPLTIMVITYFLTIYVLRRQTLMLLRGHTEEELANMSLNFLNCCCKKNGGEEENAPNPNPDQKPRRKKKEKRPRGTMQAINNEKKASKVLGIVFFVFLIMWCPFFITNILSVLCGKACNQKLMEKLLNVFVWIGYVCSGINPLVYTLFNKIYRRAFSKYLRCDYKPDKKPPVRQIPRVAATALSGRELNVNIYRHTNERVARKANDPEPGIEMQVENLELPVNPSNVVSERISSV

SMILES | pKi
COc1cc(CC(C)N)c(OC)cc1Br (stereo not drawn) [2-(4-Bromo-2,5-dimethoxy-phenyl)-1-methyl-ethylamine((-)-DOB)] | 8.00
CN1C[C@@H](NS(=O)(=O)N(C)C)C[C@@H]2c3cccc4c3c(cn4C)C[C@H]21 [MESULERGINE] | 8.57 and 9.05
